# AlphaSeq binding of Ab-14 light chain variants to a spike HR2 peptide

Antigen: PDVDLGDISGINAS, a 14-residue peptide of the SARS-CoV-2 spike HR2 region.

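The starting antibody came from a phage panning campaign against this peptide. The variants were designed computationally from a first round of random CDR variants and then made and measured. Several design methods are mixed in this list. In AlphaSeq, yeast of one mating type display the scFv and yeast of the other type display the target. Mating (16 h, 30 °C) was followed by selection of diploids and sequencing of their barcodes. Read counts were normalised to the haploid input and turned into Kd by a linear fit to BCL2-family pairs of known affinity, for each replicate. Each pool was mated in six replicate cultures.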

Parent scFv Ab-14: VH joined to VL by three GGGGS repeats. Changes lie in the light chain CDRs alone.
VH: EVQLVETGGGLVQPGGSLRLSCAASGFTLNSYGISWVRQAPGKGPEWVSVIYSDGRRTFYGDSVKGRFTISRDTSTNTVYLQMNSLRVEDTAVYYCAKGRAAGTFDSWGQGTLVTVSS
VL: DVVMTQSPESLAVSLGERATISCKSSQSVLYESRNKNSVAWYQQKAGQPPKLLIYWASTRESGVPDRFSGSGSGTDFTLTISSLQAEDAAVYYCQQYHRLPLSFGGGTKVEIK

Variants are written as CDR1, CDR2 and CDR3 of the light chain (limits as in the source). Parent: KSSQSVLYESRNKNSVA, WASTRES, QQYHRLPLS.
Values are log10 of the apparent Kd in nM; lower means stronger binding.
A mean of the replicates is given; it leaves out those without a signal.
Where no diploid with the target was found in that replicate, the entry reads "n.d.": below detection, most likely a poor binder, though not proof of it.
The authors' rule: three or more of the six replicates give a measured affinity, fewer mean a poor binder.

| CDR-L1 | CDR-L2 | CDR-L3 | replicates, log10 nM | log10 Kd (nM), mean |
|---|---|---|---|---|
| KSSQSVLYQSRNKNSVA | DASTRES | QQYHRLPLS | 0.37 / 0.22 / 0.25 / 0.12 / 0.18 / 0.46 | 0.27 |
| KLSQSVLYESRNANSVA | WASTRES | QQYHRLPLS | 0.46 / 0.50 / 0.25 / 0.17 / 0.32 / 0.43 | 0.36 |
| KLSQSQLYEWRNMNSVA | NASTREM | QQYHRLPLS | 0.17 / 0.00 / 0.03 / -0.01 / -0.07 / 0.15 | 0.04 |
| KSSQSVFYESRNKNSVA | SASTRER | QQYHRLPLS | 1.62 / 1.15 / 1.10 / 1.20 / 1.55 / 1.17 | 1.30 |
| KSSQSFLYESRNKNSVA | EASTRES | QNYHRLPLS | 1.41 / 1.39 / 1.23 / 1.54 / 1.21 / 2.20 | 1.50 |
| KLQTLTYTANIGENSVA | DANVHVD | QQYFRLPLS | 0.93 / 1.03 / 1.16 / 1.37 / 0.89 / 0.97 | 1.06 |
| KLMGSMLYESRNWNSVA | HASHRES | QQYHRLPLS | 1.59 / 1.09 / 1.41 / 1.04 / 1.17 / 1.36 | 1.28 |
| KVSQSQLYESRNKNSVA | NASQRLS | QQYHRLPLS | 0.54 / 0.35 / 0.23 / 0.22 / 0.38 / 0.35 | 0.35 |
| KLQPSWLYEERNDNSVA | NASQRES | QDYHRLPLS | 0.62 / 0.79 / 0.45 / 0.61 / 0.61 / 1.55 | 0.77 |
| KISQMYRYEQQNHSSIA | EASTREE | QSYHRLPLS | n.d. / n.d. / n.d. / n.d. / 0.95 / n.d. | 0.95 |
| NVHALMNISSEFQNSIA | DEECRDA | QQYFRLPLS | 2.98 / 1.85 / 1.82 / 1.81 / 1.76 / 2.09 | 2.05 |
| KLSQSEEYESRNKNSVA | NASTRLS | QQYHRLPLS | -0.14 / -0.25 / -0.35 / -0.31 / -0.27 / -0.10 | -0.24 |
| KLEFSVDYESRNKNAVA | QASTREK | QQYHRLPLS | 0.54 / 0.70 / 0.55 / 0.41 / 0.29 / 0.72 | 0.54 |
| TLYGLSMSMSKNVNNVA | EMSTREN | QQYDRLPLS | 0.99 / 0.27 / 0.34 / 0.63 / 0.20 / 0.84 | 0.54 |
| KVSQSVLYESRNKNSVA | NASQRES | QQYHRLPLS | -0.22 / -0.29 / -0.34 / -0.48 / -0.32 / -0.25 | -0.32 |
| KLMQSVNYGSRALNSVA | QMETRED | QQYHRLPLS | 0.62 / 0.64 / 0.62 / 0.51 / 0.45 / 0.76 | 0.60 |
| KFSQSVPYESRNKNSVA | NASTRES | QQYHRLPLS | -0.34 / -0.32 / -0.69 / -0.76 / -0.52 / -0.33 | -0.49 |
| KSSQPNLYESENKNSVA | YASTRES | PQRDRLPLS | n.d. / 0.31 / 0.52 / 2.12 / 0.87 / 0.48 | 0.86 |
| TLYGLTNSMSKNKDNVA | EMSTREL | QQYDRLPLM | n.d. / n.d. / n.d. / n.d. / n.d. / n.d. | n.d. |
| KSSQSGLYESRNHPSVA | QASTRES | QQYVRLPES | n.d. / 1.73 / n.d. / 1.40 / 1.41 / 1.64 | 1.54 |
| KDSQSVLYESRNKNSVA | WASTRES | QQYHRLPLS | n.d. / 1.82 / 1.80 / n.d. / 2.73 / 2.27 | 2.16 |
| MISQLINMGSFAINSVA | QASIRNA | QQYDRLPLA | n.d. / n.d. / 1.19 / 2.12 / 0.88 / 1.81 | 1.50 |
| KFPQSWLYESRNKNSVA | NASTRES | QQYHRLPLS | -0.64 / -0.79 / -0.66 / -0.74 / -0.62 / -0.70 | -0.69 |
| KLTQTMRFEQKKKNNIA | EVTTRSK | QQYARLPIS | 2.61 / n.d. / n.d. / 3.12 / n.d. / 3.14 | 2.96 |

Continued, with the values leading:

| replicates, log10 nM | log10 Kd (nM), mean | CDR-L1 | CDR-L2 | CDR-L3 |
|---|---|---|---|---|
| 0.62 / 0.51 / 0.55 / 0.49 / 0.42 / 0.69 | 0.55 | KSSNSTLYEDGMKNSVA | NASKRMS | QQYHRLPLS |
| n.d. / 3.39 / 1.22 / 1.93 / 1.16 / 2.06 | 1.95 | KIYQSGLYESRNKNSVA | SASTRES | QQYFRLPLS |
| n.d. / 2.00 / 2.71 / 2.88 / 1.57 / 2.03 | 2.24 | SSSQSVLYESRNKNSVA | WATTRES | QQYHRLPLS |
| 0.92 / 0.65 / 0.75 / 0.52 / 0.70 / 0.79 | 0.72 | TISQMTSLFSQSLNNVA | EVSTREP | QQYDRLPLS |
| n.d. / n.d. / n.d. / n.d. / 2.48 / n.d. | 2.48 | ASSVSVLYESRNKNSVA | WASTREQ | QQYHRLPLS |
| 0.92 / 0.99 / 0.64 / 0.77 / 1.32 / 0.92 | 0.93 | QIALSEEEVGIHKNSIA | ENTVRPE | QQYLRLPLH |
| 0.85 / 0.72 / 0.74 / 0.30 / 0.72 / 0.35 | 0.61 | KVSQSWLYESRNKNSVA | NASLRES | QQYHRLPLS |
| 1.68 / 1.40 / 1.63 / 1.68 / 1.22 / 1.57 | 1.53 | KLEEEADVITESGNSVA | EMSMVMD | QQYHRLPLA |
| 0.51 / 1.40 / 0.43 / 0.53 / -0.03 / 1.09 | 0.65 | QIYQAMHTLSQHKDNVA | DVNERGS | QQYYRLPLS |
| n.d. / 1.62 / n.d. / n.d. / 3.10 / n.d. | 2.36 | SLGLATMLEEYVRNSVA | NNSTRED | QQYDRLPLS |
| 0.05 / 0.01 / 0.04 / -0.16 / -0.15 / -0.12 | -0.05 | KLYQSVLYESRNKNSVA | NASTREV | QQYHRLPLS |
| 0.66 / 0.46 / 0.39 / 0.40 / 0.65 / 0.65 | 0.54 | TLYGLSMSMSKQKNNVA | EMSTREN | QQYDRLPLI |
| -0.23 / -0.27 / -0.40 / -0.40 / -0.27 / -0.17 | -0.29 | KLSQSVKYEDRNWNNVA | NASTRES | QDYHRLPLS |
| n.d. / n.d. / n.d. / n.d. / n.d. / 1.63 | 1.63 | KLSMLTEMEHVNRNSVA | ELVTRVN | QQYNRLPLS |
| n.d. / n.d. / n.d. / 2.43 / n.d. / n.d. | 2.43 | FWSQSLLYESRNKNSVA | WASTRES | QQYHRLPFS |
| -0.07 / -0.01 / -0.01 / -0.12 / -0.10 / 0.10 | -0.03 | KLSQSDDYEMRNKNSVA | EAQTREQ | QQYHRLPLS |
| -0.14 / -0.23 / 0.03 / -0.22 / -0.11 / -0.17 | -0.14 | KVSQAVPYEQRNKNNVA | DGSTRES | QQYHRLPLS |
| 0.81 / 0.37 / 0.49 / 0.72 / 0.37 / 0.56 | 0.55 | IISQVDDYLSRNKNSIA | DQSTRGS | QQYDRLPLS |
| -0.15 / -0.38 / -0.34 / -0.44 / -0.55 / -0.34 | -0.37 | KLSQSVLYESRMKNSVA | DASQRES | QQYHRLPLS |
| 0.37 / 0.68 / 0.11 / 0.56 / 0.91 / 0.42 | 0.51 | KLQQSEPYESRNKNSVA | NASTRES | QQYHRLPLS |
| n.d. / 3.27 / n.d. / n.d. / n.d. / 3.42 | 3.35 | NMKVGLNFEDIQHQAIA | EVEVRES | QQYARLPLT |
| -0.22 / -0.54 / -0.48 / -0.81 / -0.71 / -0.34 | -0.52 | KLSQSVLYEMRNKNSVA | DASTRES | QQYHRLPLS |
| n.d. / n.d. / 2.11 / 1.83 / 1.23 / n.d. | 1.72 | KLQMSVDQLERNDNSVA | WASHRES | QQYHRLPLS |
| -0.19 / -0.22 / -0.17 / -0.48 / -0.26 / -0.29 | -0.27 | KLPQSVPYESRNKNSVA | GASTRES | QQYHRLPLS |

4 of these entries, quoted again:

| CDR-L1 | CDR-L2 | CDR-L3 | replicates, log10 nM | log10 Kd (nM), mean |
|---|---|---|---|---|
| KSSQSFLYESRNKNSVA | EASTRES | QNYHRLPLS | 1.41 / 1.39 / 1.23 / 1.54 / 1.21 / 2.20 | 1.50 |
| KLSQSQLYEWRNMNSVA | NASTREM | QQYHRLPLS | 0.17 / 0.00 / 0.03 / -0.01 / -0.07 / 0.15 | 0.04 |
| KLMGSMLYESRNWNSVA | HASHRES | QQYHRLPLS | 1.59 / 1.09 / 1.41 / 1.04 / 1.17 / 1.36 | 1.28 |
| KLEFSVDYESRNKNAVA | QASTREK | QQYHRLPLS | 0.54 / 0.70 / 0.55 / 0.41 / 0.29 / 0.72 | 0.54 |

The range of this assay differs from that of the first round, and the authors advise against merging the two.
As a blank, each scFv also met three strains without target: over all light chain designs, 4% of these pairings were detected, typically at 2.64 and seldom below 1.59.
Of ten entries with the parent sequence, four were seen in most replicates (averages 0.34 to 2.37), three in one and three in none, so single entries are noisy.

Source: Li et al. 2023 (doi:10.1038/s41467-023-39022-2), MIT Lincoln Laboratory and A-Alpha Bio; data file from the FLAb repository.